The source of these data is US20160045482A1, “UREIDO-PYRAZOLE DERIVATIVES” (Respivert Limited, priority 2010, published 2016).

In general, IC50 refers to the concentration needed to halve the response being measured.

For one assay, the system named is IL-8. Briefly: IL-8 release activated by human rhinovirus in BEAS2B cells. The format is cell-based. As to conditions: BEAS-2B, MOI of 5, 72 hr, read-out: HRV16-induced IL-8 IC50 Value. The procedure: BEAS2B cells were infected with rhinovirus at an MOI of 5 and incubated for 2 hr at 33° C. with gentle shaking to enhance adsorption. Test compounds were added 2 hr before HRV infection and 2 hr after infection when residual extracellular HRV was washed out. The cells were then washed with PBS, fresh media was added and the cells were incubated for a further 72 hr. The supernatant was collected for assay of IL-8 concentrations using the Duoset ELISA development kit (R&D Systems, Minneapolis, Minn.).

A further assay relates to ICAM-1. The assay is described as follows: ICAM1 expression activated by human rhinovirus in BEAS2B cells (cell-based ELISA). Particulars: BEAS-2B, HRV16 inoculation (2 hr infection), read-out: HRV16-induced ICAM1 IC50 Value. How it is done:
BEAS2B cells were infected with rhinovirus at an MOI of 5 and incubated for 2 hr at 33° C. with gentle shaking to enhance adsorption. Test compounds were added 2 hr before HRV infection and 2 hr after infection when residual extracellular HRV was washed out. The cells were then washed with PBS, fresh media was added and the cells were incubated for a further 72 hr. The supernatant was collected for assay of IL-8 concentrations using the Duoset ELISA development kit (R&D Systems, Minneapolis, Minn.). The level of ICAM-1 expression on the cell surface was determined by cell-based ELISA. After appropriate incubation, cells were fixed with 4% formaldehyde in PBS. After quenching endogenous peroxidase by adding 0.1% sodium azide and 1% hydrogen peroxide, wells were washed with buffer (0.05% Tween in PBS: PBS-Tween). […] The ICAM-1 signal was detected by adding substrate and the optical densities were read at a wavelength of 450 nm and at a reference wavelength of 655 nm using a spectrophotometer. The wells were then washed with PBS-Tween and total cell numbers in each well were determined by reading the absorbance at 595 nm after Crystal Violet staining and elution by 1% SDS solution. The measured OD450-655 readings were corrected for cell number by dividing with the OD595 reading in each well.

`COCC(=O)Nc1cc(Oc2ccc(NC(=O)Nc3cc(C(C)(C)C)nn3-c3ccc(C)cc3)c3ccccc23)ccn1` [Reference Compound 2, N-(4-(4-(3-(3-tert-Butyl-1-p-tolyl-1H-pyrazol-5-yl)ureido)naphthalen-1-yloxy)pyridin-2-yl)-2-methoxyacetamide]: the values for the IC50 with IL-8 and in the assay on ICAM-1 were 0.065 nM and 0.37 nM, respectively.
